{
  "source": "patent EP0953357A1",
  "about": "“NEPHROTROPIC DRUGS” (Drug Delivery System Institute, Ltd., priority 1997, dated 1998)",
  "assay": "Organ distribution of oxytocin derivatives (Test 5)",
  "conditions": "rats, as in Test 1; average (n = 3) ± standard error",
  "data": [
    {"substance": "oxytocin", "values": [
      {"measurement": "Hepatic clearance", "result": "0.05 ± 0.01", "unit": "mL/min/g"},
      {"measurement": "Renal clearance", "result": "0.39 ± 0.06", "unit": "mL/min/g"}
    ]}
  ]
}
